The compounds below were run on cell culture (assay: Minimal toxic dose in vitro).
`NCCSN1C=CN2C(=N1)N=CN2[N+](=O)[O-].O` gave a Minimal toxic dose of 200 µg/mL.
Work on `CS(=O)(=O)N1C=Cn2c(nc(=O)n2[N+](=O)[O-])N1` yielded a Minimal toxic dose greater than 200 µg/mL.
Compound `C[S+]([O-])N1C=Cn2c(nc(=O)n2[N+](=O)[O-])N1` (stereo not drawn) has a Minimal toxic dose greater than 200 µg/mL.

Reference: patent US20190211024A1 (priority 2016, published 2019)
